Data: ChEMBL document CHEMBL1140788, “Development of CXCR3 antagonists. Part 3: Tropenyl and homotropenyl-piperidine urea derivatives” (Bioorg Med Chem Lett, 2008)

Species: Homo sapiens
Test: Protein binding to human plasma
Conditions: read-out: PPB (converted)
Compound `CC(=O)N1C2C=C(CN3C4CCC3CC(NC(=O)Nc3cc(F)cc(C(F)(F)F)c3)C4)CC1CCC2` (stereo not drawn) has a fraction unbound of 0.07. With `CC(=O)N1CCC(CN2CCC(NC(=O)Nc3cc(C(F)(F)F)cc(C(F)(F)F)c3)CC2)CC1` the fraction unbound was 0.05. For `O=C(Nc1cc(C(F)(F)F)cc(C(F)(F)F)c1)NC1CCN(CCC2CCS(=O)(=O)C2)CC1` (stereo not drawn), the fraction unbound was 0.03.
